Laboratory results: patent US20240197714A1, “METHODS FOR THE ADMINISTRATION OF CERTAIN VMAT2 INHIBITORS” (Neurocrine Biosciences, Inc., priority 2021, published 2024)

The chains behind the UniProt entries cited, without tags or fusion partners.
UniProt Q05940, whole entry: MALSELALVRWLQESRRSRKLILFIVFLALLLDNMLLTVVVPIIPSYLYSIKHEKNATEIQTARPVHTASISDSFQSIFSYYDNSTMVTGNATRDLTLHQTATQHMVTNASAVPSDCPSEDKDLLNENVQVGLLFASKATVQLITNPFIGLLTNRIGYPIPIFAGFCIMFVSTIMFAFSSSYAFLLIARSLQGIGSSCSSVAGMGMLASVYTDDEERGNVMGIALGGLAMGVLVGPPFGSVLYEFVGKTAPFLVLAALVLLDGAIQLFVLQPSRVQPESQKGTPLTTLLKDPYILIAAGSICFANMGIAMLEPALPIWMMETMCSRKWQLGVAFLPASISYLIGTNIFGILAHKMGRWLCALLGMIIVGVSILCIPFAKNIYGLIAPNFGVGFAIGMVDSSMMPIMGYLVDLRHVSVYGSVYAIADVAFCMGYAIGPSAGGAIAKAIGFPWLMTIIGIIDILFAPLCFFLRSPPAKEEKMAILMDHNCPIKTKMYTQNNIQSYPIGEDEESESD

Target: T1, VMAT2 (Homo sapiens, UniProt Q05940)
T1 construct: Eurofins Panlabs, Inc. (named only as the place where the ligand's KD was obtained)
Test: VMAT2 competitive radioligand binding assay
Description: Assays were performed under conditions described in the accompanying “Methods” section of this report. Where presented, IC50 values were determined by a non-linear, least squares regression analysis using MathIQ™ (ID Business Solutions Ltd., UK). […] Where presented, the Hill coefficient (nH), defining the slope of the competitive binding curve, was calculated using MathIQ™.

| SMILES | VMAT2 inhibition in vitro (in words) |
| --- | --- |
| [2H]C([2H])([2H])Oc1cc2c(cc1OC([2H])([2H])[2H])[C@@H]1C[C@H](O)[C@@H](CC(C)C)CN1CC2 [[−]-α-DHTBZ, (−)-α-3-isobutyl-9,10-di(methoxy-d3)-1,3,4,6,7, 11b-hexahydro-2H-pyrido[2,1-a]isoquinolin-2-ol] | inactive |
| [2H]C([2H])([2H])Oc1cc2c(cc1OC([2H])([2H])[2H])[C@@H]1C[C@@H](O)[C@@H](CC(C)C)CN1CC2 [[−]-β-DHTBZ, (−)-β-3-isobutyl-9,10-di(methoxy-d3)-1,3,4,6,7,11b-hexahydro-2H-pyrido[2,1-a]isoquinolin-2-ol] | inactive |
